Earlier results as cited in US12533408B2, “Treatment regimen for the treatment of autoimmune disorders” (Merck Patent GmbH, priority 2020, dated 2026).

Tested on: lymphocytes
Conditions: in vivo; cited from earlier work

Substance: alemtuzumab
- recovery to LLN range after infusion, B lymphocytes: 8 months
- recovery to LLN range after infusion, T lymphocytes: ~3 years
